Experimental data reported in PubChem BioAssay AID2696 (Johns Hopkins Ion Channel Center, 2010).

The chains behind the UniProt entries cited, without tags or fusion partners.
UniProt Q61143, whole entry: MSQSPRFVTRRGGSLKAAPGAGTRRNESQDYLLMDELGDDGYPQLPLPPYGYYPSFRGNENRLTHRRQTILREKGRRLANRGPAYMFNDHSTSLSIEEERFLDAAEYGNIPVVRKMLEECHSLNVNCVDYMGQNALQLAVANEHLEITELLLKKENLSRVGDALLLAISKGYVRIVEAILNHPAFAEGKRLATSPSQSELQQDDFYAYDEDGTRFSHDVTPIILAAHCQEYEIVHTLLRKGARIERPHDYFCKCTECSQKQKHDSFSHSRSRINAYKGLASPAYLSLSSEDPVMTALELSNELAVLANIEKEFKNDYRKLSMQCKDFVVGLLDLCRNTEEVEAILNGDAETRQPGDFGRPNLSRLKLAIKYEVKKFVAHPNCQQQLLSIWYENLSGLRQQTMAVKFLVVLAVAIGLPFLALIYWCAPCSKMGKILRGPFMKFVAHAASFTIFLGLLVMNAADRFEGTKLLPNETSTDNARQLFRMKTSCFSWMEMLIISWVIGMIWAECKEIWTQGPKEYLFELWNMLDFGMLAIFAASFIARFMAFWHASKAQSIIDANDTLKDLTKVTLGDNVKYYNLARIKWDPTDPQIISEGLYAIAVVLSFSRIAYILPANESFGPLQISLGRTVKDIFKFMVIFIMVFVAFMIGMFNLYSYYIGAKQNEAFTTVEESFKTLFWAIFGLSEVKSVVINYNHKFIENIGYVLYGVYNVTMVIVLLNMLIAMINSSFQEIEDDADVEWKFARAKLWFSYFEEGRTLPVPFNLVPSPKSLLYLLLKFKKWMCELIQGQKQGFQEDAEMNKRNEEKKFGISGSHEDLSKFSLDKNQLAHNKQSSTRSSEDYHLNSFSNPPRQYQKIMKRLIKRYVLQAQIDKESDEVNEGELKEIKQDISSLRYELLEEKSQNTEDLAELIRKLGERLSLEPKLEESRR

Molecular target: Short transient receptor potential channel 6 (Mus musculus) (UniProt Q61143)
Test: TRPC6 inhibitor potency, dose response, cell-based, mouse TRPC6, HEK293, membrane potential (AID 2696)
Conditions: TRPC6-expressing cells, fluorescence ratio calcium influx

Structure (SMILES)	IC50 [nM]
O=C(OCCCN1CCCC1)C(O)(c1ccccc1)C1CCCCC1 (stereo not given)	200
CN(C)CCOC(=O)C(O)(c1ccccc1)C1CCCC1 (stereo not given)	450
CCN(CC)CCCOC(=O)C(O)(c1ccccc1)C1CCCCC1 (stereo not given)	80
CCOC(=O)c1ccc(NP(C)(=O)Oc2ccc(Cl)cc2)cc1 (stereo not given)	79400
CN(C)CCOC(=O)C(O)(c1ccccc1)C1CCCCC1 (stereo not given)	1000
